Data on two substances can be found in patent US9758541B2 (priority 2013, dated 2017).

For this series the following is noted: after preparative HPLC separation.

Turning to “2-ferrocenyl-1-(4-hydroxyphenyl)-5-hydroxy-1-phenyl-pent-1-ene [P681]”, the “conversion of separated isomers into the 50/50 mixture” value is “slowly converted into the 50/50 mixture”.

“Methyl 4-ene-4-ferrocenyl-5-(4-hydroxyphenyl)-5-phenyl-pentanoate [P680]”: the “time for separated Z and E isomers to convert into the 50/50 mixture” value is reported as “less than 12 hours”.
